{
  "sequences": {"note": "Sequences of proteins named here, by UniProt entry; tags and fusion partners are left off.", "UniProt Q9UQD0, whole entry, looked up": "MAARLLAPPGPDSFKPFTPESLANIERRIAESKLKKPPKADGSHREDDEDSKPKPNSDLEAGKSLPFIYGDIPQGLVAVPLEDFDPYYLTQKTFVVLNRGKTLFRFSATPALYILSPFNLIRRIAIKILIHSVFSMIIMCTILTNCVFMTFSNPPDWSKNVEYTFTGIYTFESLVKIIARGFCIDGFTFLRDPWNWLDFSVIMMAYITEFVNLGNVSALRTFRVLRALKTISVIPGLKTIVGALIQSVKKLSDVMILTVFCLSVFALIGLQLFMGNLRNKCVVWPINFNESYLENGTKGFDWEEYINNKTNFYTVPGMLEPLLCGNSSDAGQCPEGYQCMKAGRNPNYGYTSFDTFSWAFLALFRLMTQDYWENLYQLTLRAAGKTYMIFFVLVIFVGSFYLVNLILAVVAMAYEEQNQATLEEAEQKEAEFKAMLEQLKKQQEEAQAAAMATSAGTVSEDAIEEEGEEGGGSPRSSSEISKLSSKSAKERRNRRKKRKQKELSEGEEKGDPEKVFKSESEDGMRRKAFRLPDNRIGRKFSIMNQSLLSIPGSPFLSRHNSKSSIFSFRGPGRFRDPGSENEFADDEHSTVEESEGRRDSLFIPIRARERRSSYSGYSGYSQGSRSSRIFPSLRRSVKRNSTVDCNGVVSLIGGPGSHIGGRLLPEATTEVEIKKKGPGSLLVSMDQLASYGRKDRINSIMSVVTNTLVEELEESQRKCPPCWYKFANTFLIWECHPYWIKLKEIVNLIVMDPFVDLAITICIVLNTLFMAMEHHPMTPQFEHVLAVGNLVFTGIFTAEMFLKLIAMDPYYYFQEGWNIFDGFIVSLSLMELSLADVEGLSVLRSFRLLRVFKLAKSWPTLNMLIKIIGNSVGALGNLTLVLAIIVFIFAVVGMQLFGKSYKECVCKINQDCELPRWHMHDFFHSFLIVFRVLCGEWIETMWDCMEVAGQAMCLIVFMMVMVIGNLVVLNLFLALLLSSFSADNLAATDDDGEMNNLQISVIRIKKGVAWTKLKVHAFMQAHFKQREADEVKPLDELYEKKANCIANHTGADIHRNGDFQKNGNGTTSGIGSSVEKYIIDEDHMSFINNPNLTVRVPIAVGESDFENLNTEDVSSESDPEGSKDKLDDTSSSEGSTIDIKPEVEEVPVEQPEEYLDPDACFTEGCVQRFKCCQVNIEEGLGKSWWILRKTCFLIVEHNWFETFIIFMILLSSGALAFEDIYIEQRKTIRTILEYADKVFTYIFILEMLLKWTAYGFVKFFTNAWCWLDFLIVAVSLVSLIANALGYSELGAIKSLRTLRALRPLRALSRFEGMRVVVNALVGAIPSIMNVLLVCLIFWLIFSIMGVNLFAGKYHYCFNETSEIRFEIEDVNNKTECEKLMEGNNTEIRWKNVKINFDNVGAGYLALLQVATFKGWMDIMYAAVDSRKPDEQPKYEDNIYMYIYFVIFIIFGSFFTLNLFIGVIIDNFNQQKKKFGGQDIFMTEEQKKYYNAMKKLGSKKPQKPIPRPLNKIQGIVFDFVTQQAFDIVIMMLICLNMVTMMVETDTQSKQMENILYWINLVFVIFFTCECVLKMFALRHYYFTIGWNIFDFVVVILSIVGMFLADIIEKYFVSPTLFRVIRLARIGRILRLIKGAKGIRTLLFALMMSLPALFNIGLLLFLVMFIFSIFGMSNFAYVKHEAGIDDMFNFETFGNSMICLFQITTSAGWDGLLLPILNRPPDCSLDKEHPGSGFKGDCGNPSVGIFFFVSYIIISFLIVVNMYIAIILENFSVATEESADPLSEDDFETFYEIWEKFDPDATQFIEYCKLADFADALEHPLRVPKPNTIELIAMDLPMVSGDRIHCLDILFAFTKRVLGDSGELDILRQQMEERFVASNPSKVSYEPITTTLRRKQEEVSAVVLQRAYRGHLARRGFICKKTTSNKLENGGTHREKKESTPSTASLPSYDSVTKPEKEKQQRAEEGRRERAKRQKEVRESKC"},
  "source": "patent US11918571B2",
  "about": "“Compounds and their methods of use” (Praxis Precision Medicines, Inc., priority 2017, dated 2024)",
  "target": "human Nav1.6 (hNav1.6) (Homo sapiens, UniProt Q9UQD0)",
  "experiment": "Modulation of late sodium current (INaL), PatchXpress electrophysiology, ATX-II evoked",
  "type": "cell-based",
  "conditions": "1 μM compound; HEK-293 cells expressing recombinant human Nav1.6; late current evoked by 300 nM ATX-II",
  "protocol": "Functional characterization of exemplary compounds to modulate INaL expressed by the Nav1.6 voltage-gated sodium channel was accomplished using the PatchXpress™ high throughput electrophysiology platform (Molecular Devices, Sunnyvale, CA). HEK-293 cells expressing recombinant, human Nav1.6 (hNav1.6) were grown in DMEM/high-glucose Dulbecco's modified, 10% FBS, 2 mM sodium pyruvate, 10 mM HEPES and 400 μg/mL G418. Cells were grown to 50%-80% confluency prior to harvesting. Trypsinized cells were washed, allowed to recover for 1 hour and then resuspended in extracellular recording solution at a concentration of 1×10^6 cells/ml. The onboard liquid handling facility of the PatchXpress was used for dispensing cells and applying test compounds. Nay late currents were evoked by the application of 300 nM ATX-II. INaL was evoked by depolarizing pulses to 0 mV for 200 ms from a non-inactivating holding potential (e.g., −120 mV) at a frequency of 0.1 Hz. INaL amplitude and stability were determined by analyzing the mean current amplitude over the final 20 ms of the test pulse. Following steady state block with exemplary compounds (e.g., as described herein), a Na^+ free solution containing an impermeant cation (e.g., Choline or NDMG) was added to confirm the identify of the sodium current. […]",
  "data": [
    {"compound": "FC1(F)CC(Oc2ccc(-c3ccn4nncc4c3)cc2)C1", "values": [
      {"measurement": "INaL v1.6 (1 μM, % Inhibition)", "value": "B (inhibition of between about 30% to about 70%)"}
    ]}
  ]
}
